Data published in paper PMC12511557, “WEE1 inhibitors synergise with mRNA translation defects via activation of the kinase GCN2” (Nature Communications, 2025).

Chains of the proteins cited; added tags and fusions are not shown. Lines headed by an entry give the natural chain unless they say otherwise; changes in a name come on top.
UniProt Q9P2K8: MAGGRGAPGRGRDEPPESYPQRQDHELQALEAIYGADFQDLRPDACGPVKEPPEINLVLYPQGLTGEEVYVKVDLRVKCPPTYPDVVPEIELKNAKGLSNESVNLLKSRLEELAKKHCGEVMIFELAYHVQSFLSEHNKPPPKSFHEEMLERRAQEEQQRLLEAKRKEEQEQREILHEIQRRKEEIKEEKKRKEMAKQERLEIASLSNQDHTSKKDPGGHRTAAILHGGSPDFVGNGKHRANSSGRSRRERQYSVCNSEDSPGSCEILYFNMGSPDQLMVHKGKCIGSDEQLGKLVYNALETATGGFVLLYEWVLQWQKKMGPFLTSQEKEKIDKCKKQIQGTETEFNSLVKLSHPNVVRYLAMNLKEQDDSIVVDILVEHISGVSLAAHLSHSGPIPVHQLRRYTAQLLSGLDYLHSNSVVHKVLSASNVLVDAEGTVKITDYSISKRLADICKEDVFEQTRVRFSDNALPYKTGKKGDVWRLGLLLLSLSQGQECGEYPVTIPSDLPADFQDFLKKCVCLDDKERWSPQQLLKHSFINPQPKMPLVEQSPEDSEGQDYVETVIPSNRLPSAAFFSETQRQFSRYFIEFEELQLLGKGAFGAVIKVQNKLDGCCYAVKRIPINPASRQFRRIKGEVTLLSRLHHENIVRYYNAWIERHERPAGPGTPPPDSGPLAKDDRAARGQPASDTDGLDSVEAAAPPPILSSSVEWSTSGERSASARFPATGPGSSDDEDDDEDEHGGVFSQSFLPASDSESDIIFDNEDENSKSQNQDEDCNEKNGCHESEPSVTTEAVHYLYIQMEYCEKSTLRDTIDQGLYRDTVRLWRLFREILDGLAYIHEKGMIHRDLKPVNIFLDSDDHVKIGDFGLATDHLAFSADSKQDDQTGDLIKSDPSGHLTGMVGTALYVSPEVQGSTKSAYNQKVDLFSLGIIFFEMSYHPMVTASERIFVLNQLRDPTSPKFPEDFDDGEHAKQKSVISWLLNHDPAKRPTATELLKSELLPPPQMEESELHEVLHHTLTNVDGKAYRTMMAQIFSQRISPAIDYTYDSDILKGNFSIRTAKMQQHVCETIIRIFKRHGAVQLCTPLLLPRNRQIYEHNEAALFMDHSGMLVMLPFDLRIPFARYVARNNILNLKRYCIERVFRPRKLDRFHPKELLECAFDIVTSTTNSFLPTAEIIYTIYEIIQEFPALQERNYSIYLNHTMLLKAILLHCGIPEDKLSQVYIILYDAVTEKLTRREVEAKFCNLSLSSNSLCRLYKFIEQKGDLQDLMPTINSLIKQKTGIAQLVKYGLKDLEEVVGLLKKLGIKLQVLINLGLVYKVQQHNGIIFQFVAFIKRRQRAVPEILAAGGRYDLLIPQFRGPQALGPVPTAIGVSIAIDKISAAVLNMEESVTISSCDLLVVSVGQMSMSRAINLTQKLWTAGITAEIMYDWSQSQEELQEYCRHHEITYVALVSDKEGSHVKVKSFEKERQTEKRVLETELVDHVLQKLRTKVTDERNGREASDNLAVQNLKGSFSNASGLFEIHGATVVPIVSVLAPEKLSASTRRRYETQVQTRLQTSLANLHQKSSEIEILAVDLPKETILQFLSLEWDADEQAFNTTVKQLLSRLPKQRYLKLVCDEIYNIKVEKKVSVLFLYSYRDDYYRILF

Target: GCN2 (Homo sapiens, UniProt Q9P2K8)
Design: gene EIF2AK4

Structure (SMILES): CCOc1cc2ncc(C#N)c(Nc3ccc(OCc4ccccn4)c(Cl)c3)c2cc1NC(=O)/C=C/CN(C)C [Neratinib]
- in vitro GCN2 phosphorylation assay with ATP, western blot (activation); referenc: phosphorylation of GCN2 induced by AZD1775 was comparable to that of the known GCN2 activator, and EGFR inhibitor, Neratinib
